As usually defined, the Ki is the dissociation constant of the complex between target and ligand, obtained from inhibition or displacement.

The chains behind the UniProt entries cited, without tags or fusion partners. Where a name states a change or a piece, a line headed by the entry shows the natural chain unless it says otherwise.
UniProt P0DQD5: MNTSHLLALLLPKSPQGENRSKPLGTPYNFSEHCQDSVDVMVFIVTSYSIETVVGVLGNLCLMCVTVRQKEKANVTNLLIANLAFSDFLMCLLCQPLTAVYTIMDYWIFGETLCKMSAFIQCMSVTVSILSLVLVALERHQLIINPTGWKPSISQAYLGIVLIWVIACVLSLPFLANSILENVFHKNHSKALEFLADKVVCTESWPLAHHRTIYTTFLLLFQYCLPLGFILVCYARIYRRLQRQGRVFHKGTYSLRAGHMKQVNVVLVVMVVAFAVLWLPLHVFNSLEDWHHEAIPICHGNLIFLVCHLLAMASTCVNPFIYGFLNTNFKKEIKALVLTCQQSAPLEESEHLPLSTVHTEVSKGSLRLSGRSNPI
UniProt Q63447, whole entry R262P: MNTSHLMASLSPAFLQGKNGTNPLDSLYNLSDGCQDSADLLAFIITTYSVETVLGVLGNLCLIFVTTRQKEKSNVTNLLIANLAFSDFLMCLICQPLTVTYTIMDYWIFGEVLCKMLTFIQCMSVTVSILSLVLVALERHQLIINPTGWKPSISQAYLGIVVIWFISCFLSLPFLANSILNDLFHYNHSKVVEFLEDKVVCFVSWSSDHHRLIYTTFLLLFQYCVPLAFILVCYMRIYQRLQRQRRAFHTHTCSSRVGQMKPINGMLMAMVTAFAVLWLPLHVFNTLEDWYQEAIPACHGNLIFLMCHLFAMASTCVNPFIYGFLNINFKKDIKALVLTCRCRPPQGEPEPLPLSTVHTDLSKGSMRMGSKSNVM
UniProt P25929, whole entry: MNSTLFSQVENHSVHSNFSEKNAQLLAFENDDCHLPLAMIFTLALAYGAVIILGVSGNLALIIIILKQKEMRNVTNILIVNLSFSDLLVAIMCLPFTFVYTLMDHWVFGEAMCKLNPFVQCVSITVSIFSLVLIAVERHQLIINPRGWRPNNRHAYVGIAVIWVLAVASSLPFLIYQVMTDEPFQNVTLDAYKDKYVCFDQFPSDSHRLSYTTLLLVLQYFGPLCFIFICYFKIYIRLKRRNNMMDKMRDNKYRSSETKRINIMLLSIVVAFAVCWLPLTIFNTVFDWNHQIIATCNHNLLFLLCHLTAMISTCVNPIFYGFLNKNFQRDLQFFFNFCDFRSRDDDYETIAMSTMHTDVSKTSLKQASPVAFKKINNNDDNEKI
UniProt P49146, whole entry: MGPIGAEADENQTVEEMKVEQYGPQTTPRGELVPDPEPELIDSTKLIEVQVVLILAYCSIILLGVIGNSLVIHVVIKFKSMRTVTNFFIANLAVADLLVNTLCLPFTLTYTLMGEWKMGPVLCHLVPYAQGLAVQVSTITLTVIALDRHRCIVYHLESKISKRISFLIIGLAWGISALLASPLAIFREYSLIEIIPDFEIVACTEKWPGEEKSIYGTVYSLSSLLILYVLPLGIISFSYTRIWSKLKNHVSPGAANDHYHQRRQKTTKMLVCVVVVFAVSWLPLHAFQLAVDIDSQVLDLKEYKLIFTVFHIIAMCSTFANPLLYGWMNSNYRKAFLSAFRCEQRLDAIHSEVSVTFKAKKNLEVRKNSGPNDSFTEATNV

For assay [1], the target named is T1, human Y4 receptor (human, UniProt P0DQD5 1-375). The assay is described as follows: cell-based or functional assay.
Assay [2] has as its target T1, human Y4 receptor. The assay can be described thus: 125I-PYY displacement, COS-7 membranes. As to the method: (§1) Radioligand Binding to Membrane Suspensions: Membrane suspensions were diluted in binding buffer supplemented with 0.1% bovine serum albumin and 0.1% bacitracin to yield an optimal membrane protein concentration: ~0.02 mg/ml for human Y1 receptors, ~0.015 mg/ml for hp25a receptors, and ~0.25 mg/ml for SK-N-Be(2). […] Incubations were terminated by filtration over Whatman GF/C filters (pre-coated with 0.5% polyethyleneimine and air-dried before use). […] Binding data were analyzed using nonlinear regression and statistical techniques available in the GraphPAD InPlot package (San Diego, Calif.). […] Whatman GF/C filters were from Brandel (Gaithersburg, Md.). Bio-Rad Reagent was from Bio-Rad (Hercules, Calif.). Bovine serum albumin and bacitracin were from Sigma (St. Louis, Mo.). All other materials were reagent grade.

For assay [3], the target named is T1, human Y4 receptor. The assay is described as follows: 125I-PYY displacement, COS-7 membranes. This is another data set of the same source.
The target of another assay is T2, rat Y4 receptor (rat, UniProt Q63447 1-375).
T2 construct: Full-length receptor (375 aa) transiently expressed in COS-7 cells; membranes used; also called rs16b; rat Y4 homolog
The assay can be described thus: 125I-PYY displacement, COS-7 membranes.

The target of assay [4] is T1, human Y4 receptor. The assay can be described thus: 125I-PYY displacement, COS-7 membranes (as in Table 3). As to the method: as §1
The next assay concerns the target T3, human Y1 receptor (human, UniProt P25929 1-384).
T3 construct: Transiently expressed in COS-7 cells; membranes used; also called cloned human Y1 receptor (Larhammar et al., 1992)
The assay can be described thus: 125I-PYY displacement, COS-7 membranes. As to the method: as §1

A further assay addresses T4, human Y2 receptor (human, UniProt P49146 1-381).
T4 construct: whole, on cells; Transiently expressed in COS-7 cells; membranes used; also called cloned Y2 receptor
The assay is described as follows: 125I-PYY displacement, COS-7 membranes. As to the method: as §1

B1: porcine neuropeptide Y (peptide)
peptide: not shown
modifications: C-terminal amide
notes: mature; also called porcine NPY; NPY, porcine
Consider B1, for which the “EC50, inhibition of forskolin-stimulated cAMP accumulation, LM(tk-) cells” value with human Y4 receptor [1] stood at 68 nM. The inhibition constant Ki in the assay with human Y4 receptor [2] worked out at 1.1 nM; with human Y4 receptor [3], 1.1 nM; with rat Y4 receptor, 1.8 nM; with human Y4 receptor [4] it was 1.1 nM.

B2: Phe-Met-Arg-Phe-Amide (peptide)
peptide: FMRF
modifications: C-terminal amide
notes: Tetrapeptide invertebrate neurotransmitter; also called FMRF-amide; FMRFamide
With B2, the Ki is 12000 nM with human Y1 receptor and 75000 nM with human Y2 receptor.

B3: Phe-Leu-Arg-Phe-amide (peptide)
peptide: FLRF
modifications: C-terminal amide
notes: Derivative of FMRFamide; also called FLRFamide; FLRF-amide
B3: the inhibitory constant (Ki) is 750 nM in the assay with human Y4 receptor [2] and 15000 nM with human Y1 receptor.

B4: human peptide YY (peptide)
peptide: not shown
modifications: C-terminal amide
notes: mature; also called human PYY; PYY, human
For B4, the Ki with human Y4 receptor [2] and with human Y4 receptor [4] was 0.87 nM each time.

The values above are taken from patent US6913892 (H LUNDBECK A S, dated 2005).
